The assay addresses TYK2 (Homo sapiens, UniProt P29597). The experiment in a line: TYK2 MSD degradation in OCI-LY10 cells.
Where [1] appears, read: TYK2 degradation in OCI-LY10 cells, 4 to 24 hours incubation.
Setting [2] is: read-out: TYK2 MSD OCI-LY10 Rel-DC50, TYK2 degradation in OCI-LY10 cells, 4 to 24 hours incubation.
Setting [3] is: OCI-LY10 cells, 4 to 24 hours incubation.
Setting [4] is: read-out: TYK2 MSD OCI-LY10 Rel-DC50, OCI-LY10 cells, 4 to 24 hours incubation.

Amino acid sequences for entries named in this document (tags omitted).
UniProt P29597, whole entry: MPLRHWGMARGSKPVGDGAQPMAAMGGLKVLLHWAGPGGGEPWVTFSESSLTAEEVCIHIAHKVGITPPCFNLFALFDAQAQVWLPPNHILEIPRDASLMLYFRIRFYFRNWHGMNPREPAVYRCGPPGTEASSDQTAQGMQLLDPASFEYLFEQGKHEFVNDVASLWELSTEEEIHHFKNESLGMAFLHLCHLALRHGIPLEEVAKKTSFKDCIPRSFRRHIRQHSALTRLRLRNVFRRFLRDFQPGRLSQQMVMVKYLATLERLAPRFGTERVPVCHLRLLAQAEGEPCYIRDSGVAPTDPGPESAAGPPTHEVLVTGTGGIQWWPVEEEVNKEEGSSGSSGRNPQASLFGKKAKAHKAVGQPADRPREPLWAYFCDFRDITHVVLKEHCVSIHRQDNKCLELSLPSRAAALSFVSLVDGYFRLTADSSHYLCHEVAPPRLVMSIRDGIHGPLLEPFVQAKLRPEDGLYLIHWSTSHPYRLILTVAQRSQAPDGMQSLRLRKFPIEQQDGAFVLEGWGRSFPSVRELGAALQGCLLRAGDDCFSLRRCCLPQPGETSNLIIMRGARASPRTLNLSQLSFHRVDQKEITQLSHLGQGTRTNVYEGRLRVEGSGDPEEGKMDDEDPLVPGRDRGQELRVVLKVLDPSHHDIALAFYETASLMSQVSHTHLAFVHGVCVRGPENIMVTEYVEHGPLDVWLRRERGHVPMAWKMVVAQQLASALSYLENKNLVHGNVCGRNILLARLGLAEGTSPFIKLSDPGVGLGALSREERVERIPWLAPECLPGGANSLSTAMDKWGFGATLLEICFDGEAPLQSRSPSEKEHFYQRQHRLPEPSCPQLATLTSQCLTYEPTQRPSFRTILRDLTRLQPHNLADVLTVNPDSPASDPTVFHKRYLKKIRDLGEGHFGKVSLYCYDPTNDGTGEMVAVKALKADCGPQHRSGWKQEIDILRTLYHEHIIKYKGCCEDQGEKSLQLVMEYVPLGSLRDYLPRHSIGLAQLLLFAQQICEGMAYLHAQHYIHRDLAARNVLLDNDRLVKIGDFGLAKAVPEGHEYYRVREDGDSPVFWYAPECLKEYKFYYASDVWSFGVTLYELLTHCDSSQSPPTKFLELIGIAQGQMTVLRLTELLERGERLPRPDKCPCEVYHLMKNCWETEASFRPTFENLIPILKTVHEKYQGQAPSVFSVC

We go through 26 compounds from patent US20260125400A1, “TYK2 DEGRADERS AND USES THEREOF” (Kymera Therapeutics, Inc., priority 2023, published 2026).

Usually DC50 stands for the concentration giving 50% degradation.

Molecules are shown by their SMILES. Where two headings read alike, the source gives them in different places. Where only a bound is given, the exact number is not on record here.

In the case of `CNc1cc(N2CCc3c(-c4ncc(CN5CC6(CCN(C(=O)c7cc(C)c(Cl)c(N8CCC(=O)NC8=O)c7)CC6(F)F)C5)cc4F)cccc32)nn2c(C(=O)N[C@@H]3CC[C@H]3F)cnc12`, the “TYK2 MSD OCI-LY10 Dmax %” value under setting [1] is “A (A (>90%))”. In addition, the DC50 under setting [2] is below 1 nM.
`CNc1cc(N2CCc3c(CN4CCC(CN5CCC6(CC5)CCN(C(=O)c5cc(C)c(Cl)c(N7CCC(=O)NC7=O)c5)CC6)C(F)(F)C4)cc(F)cc32)nn2c(C(=O)N[C@@H]3CC[C@H]3OC)cnc12` (stereo partly shown): the “TYK2 MSD OCI-LY10 Dmax %” value under setting [1] is on record as “B (B (90 to >75%))”. Besides, under setting [2], the DC50 was below 1 nM.
`CNc1cc(N2CCc3c2cccc3C23CC(CN4CCN(C5CCN(C(=O)c6cc(N7CCC(=O)NC7=O)c(Cl)c(C)n6)CC5(F)F)CC4)(C2)C3)nn2c(C(=O)N[C@@H]3CC[C@H]3OC)cnc12` (stereo partly shown): the “TYK2 MSD OCI-LY10 Dmax %” value under setting [1] is reported as “B (B (90 to >75%))”. In addition, the DC50 under setting [2] is below 1 nM.
For the compound `CNc1cc(N2CCc3c([C@H]4CCN(CC5CCN(c6ccc7c(c6)n(C)c(=O)n7C6CCC(=O)NC6=O)CC5)C4)cccc32)nn2c(C(=O)NC3CC3)cnc12` (stereo partly shown), the “TYK2 MSD OCI-LY10 Dmax %” value under setting [1] is recorded as “C (C (75 to 50%))”. Besides, under setting [2], the 50% degradation concentration (DC50) was below 1 nM.
As to `CNc1cc(N2CCc3c(-c4ccc(CN5CC6(CCN(C(=O)c7ccc(Cl)c(N8CCC(=O)NC8=O)c7)CC6(F)F)C5)cn4)cccc32)nn2c(C(=O)N[C@H]3CC3(F)F)cnc12`, the “TYK2 MSD OCI-LY10 Dmax %” value under setting [3] is “B (B (90 to >75%))”. Moreover, the DC50 under setting [4] was below 10 nM.
Consider `CO[C@@]1(c2cc(C)cc(-c3cn(C4CCN(C(=O)CCCCc5ccc6c(c5)n(C)c(=O)n6C5CCC(=O)NC5=O)CC4)c4cnc(NC(C)=O)cc34)n2)CCOC1` (stereo partly shown), for which the “TYK2 MSD OCI-LY10 Dmax %” value under setting [1] is recorded as “D (D (<50%))”. Moreover, the 50% degradation concentration (DC50) under setting [2] was above 100 nM.
As to `CNc1cc(N2CCc3c(CN4CC[C@H](N5CCC6(CCN(C(=O)c7cc(N8CCC(=O)NC8=O)c(Cl)cn7)CC6)CC5)C(F)(F)C4)cccc32)nn2c(C(=O)N[C@@H]3CC[C@H]3OC)cnc12`, under setting [1], the “TYK2 MSD OCI-LY10 Dmax %” value is listed as “A (A (>90%))”. For the same compound, the DC50 under setting [2] was below 1 nM.
`CNc1cc(N2CCc3c(CN4CC[C@@H](N5CCC6(CC5)CN(C(=O)c5cc(N7CCC(=O)NC7=O)c(Cl)c(C)n5)C6)C(F)(F)C4)cccc32)nn2c(C(=O)N[C@@H]3CC[C@H]3OC)cnc12`: the “TYK2 MSD OCI-LY10 Dmax %” value under setting [1] is reported as “A (A (>90%))”. For the same compound, the half-maximal degradation concentration (DC50) under setting [2] was below 1 nM.
For `CNc1cc(N2CCc3c(CN4CC[C@H](CN5CCC6(CC5)CCN(C(=O)c5cc(C)c(Cl)c(N7CCC(=O)NC7=O)c5)CC6)C(F)(F)C4)cccc32)nn2c(C(=O)N[C@@H]3CC[C@H]3OC)cnc12`, the “TYK2 MSD OCI-LY10 Dmax %” value (OCI-LY10 cells, incubated 4 to 24 hours) was “A (A (>90%))”. Also, the DC50 (read-out: TYK2 MSD OCI-LY10 Rel-DC50, OCI-LY10 cells, incubated 4 to 24 hours) is below 1 nM.
For `CNc1cc(N2CCc3c(CN4CCC(OC5CC6(CCN(C(=O)c7cc(N8CCC(=O)NC8=O)c(Cl)c(C)n7)CC6)C5)CC4)cccc32)nn2c(C(=O)N[C@@H]3CC[C@H]3OC)cnc12`, the “TYK2 MSD OCI-LY10 Dmax %” value under setting [1] was “A (A (>90%))”. Besides, under setting [2], the 50% degradation concentration (DC50) was below 1 nM.
The corresponding values for `CNc1cc(N2CCc3c(-c4ncc(CN5CC6(CCN(C(=O)c7cc(N8CCC(=O)NC8=O)c(Cl)c(C)n7)CC6(F)F)C5)cc4F)cccc32)nn2c(C(=O)N[C@@H]3CC[C@H]3OC)cnc12` are “A (A (>90%))” and below 1 nM.
The matching figures for `CNc1cc(N2CCc3c(-c4cc(CN5CCN(c6ccc7c(N8CCC(=O)NC8=O)cncc7c6)CC5)ccn4)cccc32)nn2c(C(=O)NC3CC3)cnc12`: “C (C (75 to 50%))” and below 10 nM.
The matching figures for `CNc1cc(N2CCc3c(CN4CC[C@@H](N5CCC6(CCN(C(=O)c7ccc(Cl)c(N8CCC(=O)NC8=O)c7)CC6)CC5)C(F)(F)C4)cc(F)cc32)nn2c(C(=O)N[C@@H]3CC[C@H]3OC)cnc12`: “A (A (>90%))” and below 1 nM.
As to `CNc1cc(N2CCc3c(-c4ncc([C@@H](C)N5CC6(CCN(C(=O)c7ccc(Cl)c(N8CCC(=O)NC8=O)c7)CC6(F)F)C5)cc4F)cccc32)nn2c(C(=O)N[C@@H]3CC[C@H]3OC)cnc12`, the “TYK2 MSD OCI-LY10 Dmax %” value under setting [1] is reported as “A (A (>90%))”. Besides, the half-maximal degradation concentration (DC50) under setting [2] is below 1 nM.
The matching figures for `CNc1cc(N2CCc3c(-c4ncc(CN5CC6(CCN(C(=O)c7cc(C)c(Cl)c(N8CCC(=O)NC8=O)c7)CC6(F)F)C5)cc4F)cccc32)nn2c(C(=O)N[C@@H]3CC[C@H]3OC)cnc12`: “A (A (>90%))” and below 1 nM.
The corresponding values for `CNc1cc(N2CCc3c(-c4ccc(CN5CC6(CCN(C(=O)c7ccc(Cl)c(C8CCC(=O)NC8=O)c7)CC6)C5)cn4)cccc32)nn2c(C(=O)N[C@@H]3C[C@@H]3F)cnc12` (stereo partly shown) are “B (B (90 to >75%))” and below 1 nM.
On to `CNc1cc(N2CCc3c(C#CCN4CCN(C(=O)c5ccc(Cl)c(N6CCC(=O)NC6=O)c5)CC4)cccc32)nn2c(C(=O)N[C@@H]3C[C@@H]3F)cnc12`, for which the “TYK2 MSD OCI-LY10 Dmax %” value under setting [1] is “C (C (75 to 50%))”. Under setting [2], the DC50 is 10 to 100 nM.
`CNc1cc(N2CCc3c(CN4CCC(N5CCC6(CCN(C(=O)c7ccc(Cl)c(N8CCC(=O)NC8=O)c7)CC6)CC5)C(F)(F)C4)cccc32)nn2c(C(=O)N[C@@H]3CC[C@H]3OC)cnc12` (stereo partly shown): the “TYK2 MSD OCI-LY10 Dmax %” value under setting [1] is “A (A (>90%))”. Also, the DC50 under setting [2] was below 1 nM.
For `CNc1cc(N2CCc3c(CN4CC[C@@H](N5CCC(CC6CCN(C(=O)c7cc(N8CCC(=O)NC8=O)c(Cl)c(C)n7)CC6)CC5)C(F)(F)C4)cccc32)nn2c(C(=O)N[C@@H]3CC[C@H]3OC)cnc12`, the “TYK2 MSD OCI-LY10 Dmax %” value under setting [1] is “A (A (>90%))”. In addition, under setting [2], the half-maximal degradation concentration (DC50) was below 10 nM.
With `CNc1cc(N2CCc3c(-c4ccc(CN5CC6(CCN(C(=O)c7ccc(Cl)c(N8CCC(=O)NC8=O)c7)CC6(F)F)C5)cn4)cc(F)cc32)nn2c(C(=O)N[C@@H]3C[C@@H]3F)cnc12`, the “TYK2 MSD OCI-LY10 Dmax %” value under setting [3] is “B (B (90 to >75%))”. Besides, the 50% degradation concentration (DC50) under setting [4] is below 1 nM.
Turning to `CNc1cc(N2CCc3c(-c4ccc(CN5CCC6(CCN(C(=O)c7cc(N8CCC(=O)NC8=O)c(C)cc7F)CC6)C(F)(F)C5)cn4)cccc32)nn2c(C(=O)N[C@@H]3C[C@@H]3F)cnc12`, the “TYK2 MSD OCI-LY10 Dmax %” value under setting [3] is on record as “B (B (90 to >75%))”. The DC50 under setting [4] was below 10 nM.
Turning to `CNc1cc(N2CCc3c(N4CCC[C@@H](CN5CCN(c6ccc7c(c6)n(C)c(=O)n7C6CCC(=O)NC6=O)CC5)C4)cccc32)nn2c(C(=O)NC3CC3)cnc12` (stereo partly shown), under setting [1], the “TYK2 MSD OCI-LY10 Dmax %” value is given as “D (D (<50%))”. For the same compound, under setting [2], the half-maximal degradation concentration (DC50) was above 100 nM.
Consider `CNc1cc(N2CCc3c(N4CCN(CC5CC6(CCN(Cc7ccc(Cl)c(C8CCC(=O)NC8=O)c7)CC6)C5)CC4)cccc32)nn2c(C(=O)N[C@@H]3C[C@@H]3F)cnc12` (stereo partly shown), for which the “TYK2 MSD OCI-LY10 Dmax %” value under setting [3] was “D (D (<50%))”. Further, under setting [4], the DC50 is above 100 nM.
For the compound `CNc1cc(N2CCc3c(-c4ccc(CN5CC[C@@H](N6CCN(c7ccc8c(c7)n(C)c(=O)n8C7CCC(=O)NC7=O)CC6)C(F)(F)C5)cn4)cccc32)nn2c(C(=O)N[C@@H]3C[C@@H]3F)cnc12` (stereo partly shown), the “TYK2 MSD OCI-LY10 Dmax %” value under setting [1] is reported as “B (B (90 to >75%))”. Under setting [2], the DC50 was below 10 nM.
The matching figures for `CNc1cc(N2CCc3c(-c4ncc(C(C)N5CC6(CCN(C(=O)c7ccc(Cl)c(N8CCC(=O)NC8=O)c7)CC6(F)F)C5)cc4F)cccc32)nn2c(C(=O)NC3CCC3OC)cnc12` (stereo not shown): “A (A (>90%))” and below 1 nM.
As to `CNc1cc(N2CCc3c(-c4ccc(CN5CCN(Cc6ccc(Cl)c(C7CCC(=O)NC7=O)c6)CC5)cn4)cccc32)nn2c(C(=O)N[C@@H]3C[C@@H]3F)cnc12` (stereo partly shown), under setting [1], the “TYK2 MSD OCI-LY10 Dmax %” value is given as “D (D (<50%))”. For the same compound, the DC50 under setting [2] was below 10 nM.
